Test results published in patent US20240382481A1 (priority 2021, published 2024).

The chains behind the UniProt entries cited, without tags or fusion partners.
UniProt Q96SB4, whole entry, species assumed: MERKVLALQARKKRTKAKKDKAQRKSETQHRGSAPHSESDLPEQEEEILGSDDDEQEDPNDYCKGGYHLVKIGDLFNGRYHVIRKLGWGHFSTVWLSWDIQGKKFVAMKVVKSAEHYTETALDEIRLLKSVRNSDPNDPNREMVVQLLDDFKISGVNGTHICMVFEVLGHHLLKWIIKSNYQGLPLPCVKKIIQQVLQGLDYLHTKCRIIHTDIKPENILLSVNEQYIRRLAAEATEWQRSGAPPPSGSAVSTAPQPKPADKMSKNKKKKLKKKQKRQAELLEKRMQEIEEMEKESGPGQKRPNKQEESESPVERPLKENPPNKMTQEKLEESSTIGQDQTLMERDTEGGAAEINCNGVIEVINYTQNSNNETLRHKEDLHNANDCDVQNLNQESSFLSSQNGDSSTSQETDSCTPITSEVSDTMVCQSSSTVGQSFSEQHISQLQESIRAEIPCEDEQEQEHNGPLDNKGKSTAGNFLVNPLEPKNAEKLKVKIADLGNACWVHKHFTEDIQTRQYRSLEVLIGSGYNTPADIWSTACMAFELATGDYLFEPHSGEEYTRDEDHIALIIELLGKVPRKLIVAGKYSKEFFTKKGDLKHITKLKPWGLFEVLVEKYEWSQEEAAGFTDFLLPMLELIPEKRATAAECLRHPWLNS
UniProt P78362, whole entry, species assumed: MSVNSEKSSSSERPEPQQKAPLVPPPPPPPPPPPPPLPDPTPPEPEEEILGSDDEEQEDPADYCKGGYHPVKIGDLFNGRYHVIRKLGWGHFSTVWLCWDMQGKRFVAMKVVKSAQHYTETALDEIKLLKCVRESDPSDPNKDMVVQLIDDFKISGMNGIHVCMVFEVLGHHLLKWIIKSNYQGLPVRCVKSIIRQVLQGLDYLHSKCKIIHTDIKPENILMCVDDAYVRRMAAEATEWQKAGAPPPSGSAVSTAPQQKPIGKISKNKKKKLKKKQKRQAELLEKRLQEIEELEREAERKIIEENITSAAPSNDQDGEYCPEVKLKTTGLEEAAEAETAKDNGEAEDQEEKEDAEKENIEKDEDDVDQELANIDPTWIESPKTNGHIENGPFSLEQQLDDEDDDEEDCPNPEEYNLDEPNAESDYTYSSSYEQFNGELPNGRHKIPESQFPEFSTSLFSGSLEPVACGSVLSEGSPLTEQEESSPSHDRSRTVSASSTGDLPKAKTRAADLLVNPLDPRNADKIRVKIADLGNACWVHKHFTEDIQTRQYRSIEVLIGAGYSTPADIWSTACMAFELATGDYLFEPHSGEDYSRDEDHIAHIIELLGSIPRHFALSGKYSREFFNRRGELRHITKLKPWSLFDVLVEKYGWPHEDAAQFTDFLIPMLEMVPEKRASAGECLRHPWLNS

How the values were obtained:
SRPK1 = SRPK1 (Homo sapiens, UniProt Q96SB4); assay: biochemical
SRPK2 = SRPK2 (Homo sapiens, UniProt P78362); assay: biochemical

**Q.** What does the source list for `CN(c1ncccc1CNc1ccnc(-c2nc3c(F)c(Cl)ccc3[nH]2)n1)S(C)(=O)=O` [Compound B10]?
**A.** IC50 (SRPK1): < 50 nM; IC50 (SRPK2): 50 to 500 nM
